IC50 data for seven molecules are collected here from US20250361280A1 (Protagonist Therapeutics, Inc., priority 2022, published 2025).

A value given as a limit tells only on which side of the number the result lay.

Assay [1] deals with T1, ferroportin (Homo sapiens, UniProt Q9NP59).
T1 sequence (Q9NP59 1-571): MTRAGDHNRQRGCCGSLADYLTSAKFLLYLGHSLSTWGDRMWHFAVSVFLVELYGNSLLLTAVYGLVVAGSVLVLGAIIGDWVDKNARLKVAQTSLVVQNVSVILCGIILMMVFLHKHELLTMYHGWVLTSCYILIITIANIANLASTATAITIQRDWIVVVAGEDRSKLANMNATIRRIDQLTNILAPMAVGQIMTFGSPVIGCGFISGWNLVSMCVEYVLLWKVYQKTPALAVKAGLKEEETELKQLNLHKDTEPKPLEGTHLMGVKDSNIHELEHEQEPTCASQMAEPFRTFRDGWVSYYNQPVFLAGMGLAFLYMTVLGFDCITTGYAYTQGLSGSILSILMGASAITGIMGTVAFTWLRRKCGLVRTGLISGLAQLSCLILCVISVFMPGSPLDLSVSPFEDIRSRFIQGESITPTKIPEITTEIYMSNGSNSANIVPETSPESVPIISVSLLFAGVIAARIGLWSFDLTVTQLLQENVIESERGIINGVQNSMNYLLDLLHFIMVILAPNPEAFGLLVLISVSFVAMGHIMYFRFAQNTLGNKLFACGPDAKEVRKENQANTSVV
Nature of the assay: FPN internalization assay (FPN activity assay), loss of ferroportin-GFP fluorescence. The format is cell-based. Conditions: HEK293 cells stably expressing ferroportin-GFP, compound at least 18 hours, read-out: IC50: FPN.

Assay [2] has as its target T1, ferroportin. Nature of the assay: T47D internalization assay in presence of mouse serum albumin. The assay is classed as cell-based. Set-up: a human breast carcinoma adherent cell line which endogenously expresses ferroportin; host or cells: T47D. The note with it: T47D cells, 0.5% mouse serum albumin, 1 hr incubation, read-out: IC50: T47D MSA. In short, it runs like this: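 T47D cells exposed 1 h to 10-point peptide dilutions (top ~5 μM) preincubated 30 min with 0.5% mouse serum albumin. Then 200 nM AF647-labelled ferroportin-binding detection peptide for 2 h. Flow cytometry MFI of live singlets, IC50 by 4-parameter fit.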

In the case of `COC(=O)CC[C@H](NC(=O)CC(C)C)C(=O)N[C@H](C(=O)N[C@@H](Cc1c[nH]cn1)C(=O)N[C@H](C(=O)N1CCC[C@H]1C(=O)N(C)[C@@H](CCCCNC(=O)C[N+](C)(C)CCNC(=O)C[N+](C)(C)CCNC(=O)CCCc1ccc(I)cc1)C(=O)NCCCCCc1ccccc1)C(c1ccccc1)c1ccccc1)[C@@H](C)O` [compound 65], the IC50 (as a rule, the concentration at which inhibition is half-maximal) at ferroportin [1] (Table 1D) is 100 to 500 nM; on ferroportin [2] (Table 1D) it was 10 to 100 nM.

Consider `CC(C)CC(=O)N[C@@H](CCC(=O)O)C(=O)N[C@H]1CSSC[C@@H](C(=O)N[C@@H](CCCCNC(=O)[C@H](CN)NC(=O)CCCc2ccc(I)cc2)C(=O)NCCCCc2ccccc2)NC(=O)[C@H](C(c2ccccc2)c2ccccc2)NC(=O)[C@H](Cc2c[nH]cn2)NC1=O` [compound 172], for which the IC50 fell in the range of 30 to 100 nM at ferroportin [1] (Table 1D) and 100 to 500 nM on ferroportin [2] (Table 1D).

As to `CCCCCCCCCCCCCCCC(=O)NCC[N+](C)(C)CC(=O)NCCOCCOCC(=O)NCCOCCOCC(=O)NCCCC[C@H](NC(=O)[C@@H]1CCCN1C(=O)[C@@H](NC(=O)[C@H](Cc1c[nH]cn1)NC(=O)[C@@H]1CCCN1C(=O)[C@H](CCC(=O)O)NC(=O)CC(C)C)C(c1ccccc1)c1ccccc1)C(=O)NCCCCCc1ccccc1` [compound 111], the results for the IC50 on ferroportin [1] (Table 1D) and on ferroportin [2] (Table 1D) were greater than 500 nM and 0.1 to 10 nM, respectively.

`CCCCCCCCCCCCCCCC(=O)NCCCCCC(=O)NCCOCCOCC(=O)NCCOCCOCC(=O)NCCCC[C@H](NC(=O)[C@@H]1CCCN1C(=O)[C@@H](NC(=O)[C@H](Cc1c[nH]cn1)NC(=O)[C@@H](NC(=O)[C@H](CCC(=O)O)NC(=O)CC(C)C)[C@@H](C)O)C(c1ccccc1)c1ccccc1)C(=O)NCCCCCc1ccccc1` [compound 91]: the IC50 lay within 1 to 30 nM at ferroportin [1] (Table 1D) and 0.1 to 10 nM at ferroportin [2] (Table 1D).

In the case of `CC(C)CC(=O)N[C@@H](CCC(=O)O)C(=O)N[C@H](C(=O)N[C@@H](Cc1c[nH]cn1)C(=O)N[C@H](C(=O)N1CCC[C@H]1C(=O)N[C@H](CCCCN)C(=O)N(CCC(=O)O)C(CC(C)C)C(N)=O)C(c1ccccc1)c1ccccc1)[C@@H](C)O` (some centres unmarked) [compound 139], the half-maximal inhibitory concentration (IC50) on ferroportin [1] (Table 1D) and at ferroportin [2] (Table 1D) was greater than 500 nM in each case.

For `CCCCCCCCCCCCCCCC(=O)NCC[N+](C)(C)CC(=O)NCCOCCOCC(=O)NCCOCCOCC(=O)NCCCC[C@H](NC(=O)[C@@H]1CCCN1C(=O)[C@@H](NC(=O)[C@H](Cc1c[nH]cn1)NC(=O)[C@@H](NC(=O)[C@H](CCC(=O)O)NC(=O)CC(C)C)[C@@H](C)O)C(c1ccccc1)c1ccccc1)C(=O)NCC(c1ccccc1)c1ccccc1` [compound 26], the IC50 at ferroportin [1] (Table 1C) lay in the range of 1 to 30 nM; at ferroportin [2] (Table 1C) it was 0.1 to 10 nM.

With `CCCCCCCCCCCCCCCC(=O)N[C@@H](CN)C(=O)NCCOCCOCC(=O)NCCOCCOCC(=O)NCCCC[C@H](NC(=O)[C@H]1NC(=O)[C@H](C(c2ccccc2)c2ccccc2)NC(=O)[C@H](Cc2c[nH]cn2)NC(=O)[C@@H](NC(=O)[C@H](CCC(=O)O)NC(=O)CC(C)C)C(C)(C)SSC1(C)C)C(=O)NCCCCc1ccccc1` [compound 174], the values for the IC50 on ferroportin [1] (Table 1D) and on ferroportin [2] (Table 1D) were 30 to 100 nM and 100 to 500 nM, respectively.
